We go through one compound from patent US12393007B2, “Method for adapting optical properties of an immersion mixture, and immersion mixtures and components thereof” (Carl Zeiss Microscopy GmbH, priority 2018, dated 2025).

Only a part of the results on these compounds is given; other tests are left out.

The data set in a line: Refractive index ne at 23° C., reference wavelength 546.1 nm. It counts as physicochemical. To be noted: pure substance.

For `OCCN(CCO)CCO`, the “ne (refractive index) of the substance” value was 1.4868.
